From PMC10141580, “Cyclic Dichalcogenides Extend the Reach of Bioreductive Prodrugs to Harness Thiol/Disulfide Oxidoreductases: Applications to seco-Duocarmycins Targeting the Thioredoxin System” (ACS Central Science, 2023) come the findings set out here.

The subject of the data set is Balb/c mice with 4T1 tumors. The data set is described as follows: 4T1-bearing tolerability study. Conditions: 3 mg/kg once or twice per week, 4T1-bearing Balb/c mice.

Regarding `COc1cc2cc(C(=O)N3C[C@@H](CCl)c4c3cc(OC(=O)N3CCN(C(=O)CCC(=O)N5CCN(C)CC5)[C@H]5CSSC[C@H]53)c3ccccc43)[nH]c2c(OC)c1OC` [P-SS66C-CBI-TMI], the tolerability entry is listed as “tolerated”. Next, `COc1cc2cc(C(=O)N3C[C@@H](CCl)c4c3cc(OC(=O)N(CCC(=O)N3CCN(C)CC3)C3CCCCC3)c3ccccc43)[nH]c2c(OC)c1OC` [P-CC60-CBI-TMI]: “tolerated”; `COc1cc2cc(C(=O)N3CC(CCl)c4c3cc(OC(=O)N3CCN(C)C5CSSCC53)c3ccccc43)[nH]c2c(OC)c1OC` (mixture of isomers) [Me-SS66C-CBI-TMI]: “tolerated”; `COc1cc2cc(C(=O)N3C[C@@H](CCl)c4c3cc(OC(=O)N(CCC(=O)N3CCN(C)CC3)[C@H]3CCSSC3)c3ccccc43)[nH]c2c(OC)c1OC` [P-SS60-CBI-TMI]: “tolerated”.
